{"sequences": {"note": "Sequences of proteins named here, by UniProt entry; tags and fusion partners are left off.", "UniProt Q9UM07, whole entry": "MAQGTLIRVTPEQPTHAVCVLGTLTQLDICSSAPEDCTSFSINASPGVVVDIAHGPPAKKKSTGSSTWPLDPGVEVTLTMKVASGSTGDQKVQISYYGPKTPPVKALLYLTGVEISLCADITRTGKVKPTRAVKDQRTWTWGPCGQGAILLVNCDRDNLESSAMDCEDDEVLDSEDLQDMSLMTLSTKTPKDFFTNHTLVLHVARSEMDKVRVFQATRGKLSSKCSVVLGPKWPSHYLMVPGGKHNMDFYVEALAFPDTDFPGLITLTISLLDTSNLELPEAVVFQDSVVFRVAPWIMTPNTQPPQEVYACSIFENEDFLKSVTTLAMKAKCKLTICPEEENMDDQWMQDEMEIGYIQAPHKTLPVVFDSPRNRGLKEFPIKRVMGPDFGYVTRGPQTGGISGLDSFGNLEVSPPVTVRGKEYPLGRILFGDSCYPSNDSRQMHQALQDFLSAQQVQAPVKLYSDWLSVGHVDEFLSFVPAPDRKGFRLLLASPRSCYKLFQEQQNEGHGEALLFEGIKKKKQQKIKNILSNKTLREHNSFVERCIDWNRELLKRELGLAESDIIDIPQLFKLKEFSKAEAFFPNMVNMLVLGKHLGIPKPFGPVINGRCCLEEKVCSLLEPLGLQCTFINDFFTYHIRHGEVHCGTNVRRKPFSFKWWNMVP"}, "source": "PubChem BioAssay AID485272", "about": "(The Scripps Research Institute Molecular Screening Center, 2010)", "note": "The list shows a part of the results, in another mix than the full data. Activity calls are given as the source filed them.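 Rule for the calls: active = percent inhibition above a cutoff equal to the mean of all tested compounds plus 3 SD (cut at about 15% in these data); inactive = the rest.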"}
{"target": "Protein-arginine deiminase type-4 (Homo sapiens) (UniProt Q9UM07)", "experiment": "protein arginine deiminase 4 enzyme blockade – biochemical, fluorescence polarization, 1536-well format, primary screen (AID 485272);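 note: 0% = PAD4 with RCA probe and DMSO and 100% = probe without PAD4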", "conditions": "recombinant PAD4, RCA probe fluorescence polarization; at 6.36 µM; stronger effect = higher value"}
{"smiles": "CCOC(=O)N1CCC(Nc2ccc(C)cc2)CC1", "inhibition": "inactive: -0.03%"}
{"smiles": "N/C(=N\\O)c1c(N)no[n+]1[O-]", "inhibition": "inactive: -15.7%"}
{"smiles": "O=C(OC1CN2CCC1CC2)C1c2ccccc2C=Cc2ccccc21", "note": "(stereo not drawn)", "inhibition": "inactive: 0.53%"}
{"smiles": "CCc1cc(C(=O)NCC2(N3CCCCC3)CCCCC2)sc1C", "inhibition": "inactive: -2.62%"}
{"smiles": "COc1cc(C(=O)NCC2(N3CCOCC3)CCCCC2)cc(OC)c1C", "inhibition": "inactive: -3.36%"}
{"smiles": "O=C(NCC1(N2CCOCC2)CCCCC1)c1cc(Br)ccc1Cl", "inhibition": "inactive: -3.16%"}
{"smiles": "COc1ccc(C(=O)NCC2(N3CCOCC3)CCCCC2)cc1OC", "inhibition": "inactive: -1.89%"}
{"smiles": "CN(C)C1(CNC(=O)c2cccc(C#N)c2)CCCCC1", "inhibition": "inactive: 3.37%"}
{"smiles": "c1ccc(CN2CCC(Nc3ccccc3)CC2)cc1", "inhibition": "inactive: 0.93%"}
{"smiles": "CCCN1CCC(Nc2cc(OC)cc(OC)c2)CC1", "inhibition": "inactive: -0.01%"}
{"smiles": "N#Cc1ccc(C(=O)NCC2(N3CCCCC3)CCCCC2)cc1", "inhibition": "inactive: -0.46%"}
{"smiles": "CC(C)(C)OC(=O)N1CCC(N(C(=O)c2ccccc2)c2ccc(Cl)cc2)CC1", "inhibition": "inactive: -3.65%"}
{"smiles": "CCN1CCC(Nc2cccc(F)c2)CC1", "inhibition": "inactive: 0.74%"}
{"smiles": "O=C(NCC1(N2CCCCC2)CCCCC1)c1ccco1", "inhibition": "inactive: -4.3%"}
{"smiles": "CN(C)c1ccc(C(=O)NCC2(N3CCCCC3)CCCCC2)cc1", "inhibition": "inactive: -1.26%"}
{"smiles": "COc1cc(OC)cc(C(=O)NCC2(N3CCCCC3)CCCCC2)c1", "inhibition": "inactive: 1.28%"}
{"smiles": "Cc1ccc(C(=O)NCC2(N3CCCCC3)CCCCC2)o1", "inhibition": "inactive: 4.21%"}
{"smiles": "Fc1ccccc1NC1CCN(Cc2ccccc2)CC1", "inhibition": "inactive: -1.07%"}
{"smiles": "COc1cccc(C(=O)N(c2cc(C)cc(C)c2)C2CCN(C(=O)OC(C)(C)C)CC2)c1", "inhibition": "inactive: -7.38%"}
{"smiles": "COc1cc(OC)cc(C(=O)NCC2(N3CCOCC3)CCCCC2)c1", "inhibition": "inactive: -3.44%"}
{"smiles": "CCC(CO)(C(=O)OC1CN2CCC1CC2)c1ccccc1", "note": "(stereo not drawn)", "inhibition": "inactive: -0.67%"}
{"smiles": "CN1CCC(Nc2ccc(Cl)cc2)CC1", "inhibition": "inactive: 2.19%"}
{"smiles": "CCCOc1ccc(C)cc1CN(CCCl)CCCl", "inhibition": "inactive: 3.88%"}
{"smiles": "CCOc1ncccc1C(=O)NCC1(N2CCOCC2)CCCCC1", "inhibition": "inactive: -2.06%"}
{"smiles": "CN1CCC(Nc2ccc(F)c(Cl)c2)CC1", "inhibition": "inactive: -2.08%"}
{"smiles": "CC(C)(C)OC(=O)N1CCC(Nc2ccccc2)CC1", "inhibition": "inactive: 0.03%"}
{"smiles": "O=C(O)C1(Nc2ccccc2)CCN(Cc2ccccc2)CC1", "inhibition": "inactive: 3.49%"}
{"smiles": "CCCOc1ccc(C(=O)NCC2(N(C)C)CCCCC2)cc1", "inhibition": "inactive: 1.46%"}
{"smiles": "O=C(NCC1(N2CCCCC2)CCCCC1)c1ccc(Cl)nc1", "inhibition": "inactive: -2.43%"}
{"smiles": "Cc1cc(C)cc(N(C(=O)c2ccccc2)C2CCN(C(=O)OC(C)(C)C)CC2)c1", "inhibition": "inactive: -1.78%"}
{"smiles": "O=C(NCC1(N2CCOCC2)CCCCC1)c1cc2ccccc2o1", "inhibition": "inactive: -5.81%"}
{"smiles": "O=C(OC1CN2CCC1CC2)C1c2ccccc2Oc2ccccc21", "note": "(stereo not drawn)", "inhibition": "inactive: -4.87%"}
{"smiles": "N#CC1(Nc2ccccc2)CCN(Cc2ccccc2)CC1", "inhibition": "inactive: -5.82%"}
{"smiles": "O=C(NCC1(N2CCCCC2)CCCCC1)c1ccc(Cl)s1", "inhibition": "inactive: 0.31%"}
{"smiles": "COc1ccc(Cl)cc1C(=O)NCC1(N2CCOCC2)CCCCC1", "inhibition": "inactive: 0.35%"}
{"smiles": "CCOC(=O)N1CCC(Nc2ccc(OC)cc2)CC1", "inhibition": "inactive: -0.5%"}
{"smiles": "COc1ccc(C(=O)NCC2(N3CCCCC3)CCCCC2)cc1", "inhibition": "inactive: 3.87%"}
{"smiles": "CC(C)(C)OC(=O)N1CCC(N(C(=O)c2ccccc2)c2ccc(F)cc2)CC1", "inhibition": "inactive: 6.86%"}
{"smiles": "COc1ccc(C(=O)NCC2(N3CCCCC3)CCCCC2)c(OC)c1OC", "inhibition": "inactive: 4.58%"}
{"smiles": "O=C(NCC1(N2CCCCC2)CCCCC1)c1ccc(=O)[nH]c1", "inhibition": "inactive: 4.72%"}
{"smiles": "O=C(NCC1(N2CCCCC2)CCCCC1)c1cccs1", "inhibition": "inactive: -1.23%"}
{"smiles": "CSc1ccccc1C(=O)NCC1(N2CCCCC2)CCCCC1", "inhibition": "inactive: -6.02%"}
{"smiles": "CCOC(=O)N1CCC(Nc2cccc(C)c2)CC1", "inhibition": "inactive: 4.95%"}
{"smiles": "Cc1ccc(OCC(C)C)c(CN(CCCl)CCCl)c1", "inhibition": "inactive: 6.04%"}
{"smiles": "CCOc1ccc(C)cc1CN(CCCl)CCCl", "inhibition": "inactive: -5.75%"}
{"smiles": "O=C(NCC1(N2CCCCC2)CCCCC1)c1ccc(F)cc1", "inhibition": "inactive: 1.98%"}
{"smiles": "COc1ccc(NC2CCN(CCc3ccccc3)CC2)c(OC)c1", "inhibition": "inactive: -5.76%"}
{"smiles": "O=C(NCC1(N2CCCCC2)CCCCC1)c1cccc(C(F)(F)F)c1", "inhibition": "inactive: -1.26%"}
{"smiles": "O=C(NCC1(N2CCOCC2)CCCCC1)c1cc(=O)[nH]c2ccccc12", "inhibition": "inactive: -4.33%"}
{"smiles": "COc1cc(C(=O)NCC2(N3CCCCC3)CCCCC2)ccc1OC(F)F", "inhibition": "inactive: -5.81%"}
{"smiles": "COc1ccc(NC2CCN(C(=O)OC(C)(C)C)CC2)cc1", "inhibition": "inactive: -4.28%"}
{"smiles": "CN1CCN(CCOC(=O)C(O)(c2ccccc2)c2ccccc2)CC1", "inhibition": "inactive: -0.99%"}
{"smiles": "O=C(NCC1(N2CCCCC2)CCCCC1)c1ccc(OC(F)F)cc1", "inhibition": "inactive: -2.94%"}
{"smiles": "CCN1CCC(Nc2ccc(Cl)cc2)CC1", "inhibition": "inactive: 0.64%"}
{"smiles": "N#CC1(Nc2ccccc2)CCN(CCc2ccccc2)CC1", "inhibition": "inactive: -2.37%"}
{"smiles": "O=C(NCC1(N2CCCCC2)CCCCC1)c1cccc([N+](=O)[O-])c1", "inhibition": "inactive: -3.61%"}
{"smiles": "O=C(NCC1(N2CCCCC2)CCCCC1)c1cncc(Br)c1", "inhibition": "inactive: -4.84%"}
{"smiles": "CN1CCC(Nc2cccc(F)c2)CC1", "inhibition": "inactive: -8.72%"}
{"smiles": "CC(C)c1ccc(NC2CCN(C(=O)OC(C)(C)C)CC2)cc1", "inhibition": "inactive: 1.43%"}
{"smiles": "COc1ccc(CN(CCCl)CCCl)cc1Cl", "inhibition": "inactive: 2.78%"}
{"smiles": "CN(C)c1cccc(C(=O)NCC2(N3CCCCC3)CCCCC2)c1", "inhibition": "inactive: -5.72%"}
{"smiles": "COc1cc(OC)c(C(=O)NCC2(N(C)C)CCCCC2)cc1OC", "inhibition": "inactive: 3.01%"}
{"smiles": "O=C(NCC1(N2CCOCC2)CCCCC1)c1cc(F)c(F)cc1Cl", "inhibition": "inactive: 0.05%"}
